Results reported in publication PMC6375636, “Monotherapy with a low-dose lipopeptide HIV fusion inhibitor maintains long-term viral suppression in rhesus macaques” (PLoS Pathogens, 2019).

Key:
in vivo [1] = assay: in vivo
Procedure: (§1) A single-cycle infection assay was performed to determine the inhibitory activity of the monkey sera on HIV-1NL4-3 pseudovirus. The 50% effective concentration was defined as the fold serum dilution that inhibited 50% of virus infection.

HIV-1NL4-3 pseudovirus = assay: Ex vivo inhibitory activity of sera from monkeys administrated LP-80 (single-cycle infection assay); format: in vivo, Chinese rhesus macaques
Procedure: as §1

[2] = rats, 6 mg/kg, 72 h after injection
in vivo [3] = settings: Sprague-Dawley, rat, 6 mg/kg
[4] = system: HIV-1 pseudovirus, primary Env BJOX002000.03.2; format: cell-based; settings: Env BJOX002000.03.2, subtype B/C; mean ± SD of 3 assays in triplicate
Procedure: The inhibitory activities of inhibitors against HIV-1 pseudoviruses and replication-competent isolates were measured as described previously. Briefly, HIV-1 pseudoviruses were generated via the cotransfection of HEK293T cells with an Env-expressing plasmid and a backbone plasmid that encodes Env-defective, luciferase-expressing HIV-1 genome (pSG3Δenv). Viral stocks of replication-competent HIV-1 isolates were generated by transfecting viral molecular clones into HEK293T cells. Culture supernatants were harvested at 48 h posttransfection, and 50% tissue culture infectious doses (TCID50) in TZM-bl cells were determined. Inhibitors were prepared in 3-fold dilutions, mixed with 100 TCID50 of a virus, and then incubated for 1 h at room temperature. The mixture was added to TZM-bl cells (10^4/well), and the cells were incubated for additional 48 h at 37°C. Luciferase activity was measured as described above.

CCCCCCCCCCCCCCCCCC(=O)NCCCC[C@H](NC(=O)[C@H](CCC(=O)O)NC(=O)[C@H](CC(C)C)NC(=O)[C@H](CCCCN)NC(=O)[C@H](CCCCN)NC(=O)[C@H](CC(C)C)NC(=O)[C@H](CCC(=O)O)NC(=O)[C@H](CCC(=O)O)NC(=O)[C@H](CCC(=O)O)NC(=O)[C@H](CC(N)=O)NC(=O)[C@H](CCCCN)NC(=O)[C@H](CCCCN)NC(=O)[C@H](CCC(N)=O)NC(=O)[C@H](CCC(N)=O)NC(=O)[C@H](CCC(=O)O)NC(=O)[C@H](CCC(=O)O)NC(=O)[C@H](C)NC(=O)[C@H](CCCCN)NC(=O)[C@H](CCCCN)NC(=O)[C@H](CC(C)C)NC(=O)[C@H](CC(C)C)NC(=O)[C@H](CCC(=O)O)NC(=O)[C@H](CCC(=O)O)NC(=O)[C@@H](NC(=O)[C@H](CCCCN)NC(=O)[C@H](CCC(N)=O)NC(=O)[C@H](CCC(=O)O)NC(=O)[C@H](Cc1c[nH]c2ccccc12)NC(C)=O)[C@@H](C)CC)C(N)=O [LP-80] (Ac-WEQKIEELLKKAEEQQKKNEEELKKLEK(Stearoyl)-NH2)
level at 72 h (in vivo [1]; rhesus monkey, in vivo, sc, 3 mg/kg): 1.15 µg/mL | Serum concentration, fold higher than the IC50 value 7.09 pM (in vivo [1]; rhesus monkeys, SC 3 mg/kg, 72 h): 42,062 fold | Serum concentration, fold higher than the measured IC50 value (in vivo [1]; rhesus monkeys, SC 3 mg/kg, 168 h): 330 fold | Mean fold serum dilution that inhibited 50% of virus infection (HIV-1NL4-3 pseudovirus; monkey sera 96 h after SC 3 mg/kg): 1,980 fold | Mean fold serum dilution that inhibited 50% of virus infection (HIV-1NL4-3 pseudovirus; monkey sera 120 h after SC 3 mg/kg): 211 fold | Mean fold serum dilution that inhibited 50% of virus infection (HIV-1NL4-3 pseudovirus; monkey sera 168 h after SC 3 mg/kg): 31 fold | Serum concentration, fold higher than the mean IC50 value (7.09 pM) [2]: 257 fold | half-life (in vivo [3]; iv): 6.04 ± 0.85 h | half-life (in vivo [3]; sc): 6.28 ± 1.03 h

CCCCCCCCCCCCCCCCCC(=O)NCCCC[C@H](NC(=O)[C@H](CCC(=O)O)NC(=O)[C@H](CC(C)C)NC(=O)[C@H](CCCCN)NC(=O)[C@H](CCCCN)NC(=O)[C@H](CC(C)C)NC(=O)[C@H](CCC(=O)O)NC(=O)[C@H](CCC(=O)O)NC(=O)[C@H](CCC(=O)O)NC(=O)[C@H](CC(N)=O)NC(=O)[C@H](CCCCN)NC(=O)[C@H](CCCCN)NC(=O)[C@H](CCC(N)=O)NC(=O)[C@H](CCC(N)=O)NC(=O)[C@H](CCC(=O)O)NC(=O)[C@H](CCC(=O)O)NC(=O)[C@H](C)NC(=O)[C@H](CCCCN)NC(=O)[C@H](CCCCN)NC(=O)[C@H](CC(C)C)NC(=O)[C@H](CC(C)C)NC(=O)[C@H](CCC(=O)O)NC(=O)[C@H](CCC(=O)O)NC(=O)[C@@H](NC(C)=O)[C@@H](C)CC)C(N)=O [LP-90]
IC50 [4]: 0.0139 ± 0.00246 nM

Peptide text beside a SMILES is read from it. * marks the point of attachment. Stearoyl = CCCCCCCCCCCCCCCCCC(=O)*
